According to patent publication US20090214565A1 (BAYLOR RESEARCH INSTITUTE, published 2009):

Tests used:
IFN-α B2 [1] = target: T1, IFN-α B2 (human, UniProt P32881 24-189); assay: cell-based or functional assay
IFN-α B2 [2] = target: T1, IFN-α B2; assay: cell-based or functional assay; remark: listed apart in the source

B1: ACO-1 (antibody, V domains shown)
VH: QVQLQQPGAELVKPGASVKLSCKASGYTFTNYWMHWVKQRPGQGLEWIGEINPSHGRTIYNENFKSKATLTVDKSSITAFMQLSSLTSEDSAVYFCARGGLGPAWFAYWGQGTLVTVSA
VL: QIVLTQSPAIMSASPGEKVTLTCSAGSSVDSSYLYWYQQKPGSSPKLWIYSTSNLASGVPARFSGSGSGTSYSLTISSMEAEDAASYFCHQWSSYPFTFGSGTKLEIKR
notes: also called ACO-1 monoclonal antibody; hybridoma ATCC PTA-6557
percentage neutralization, CPE assay (IFN-α B2 [1]): 98.8%
EC50 of neutralization, RG bioassay (IFN-α B2 [2]): 8.09 ng/mL
